From US20250100987A1 (priority 2021, published 2025)

The chains behind the UniProt entries cited, without tags or fusion partners. Where a name states a change or a piece, a line headed by the entry shows the natural chain unless it says otherwise.
UniProt P41145: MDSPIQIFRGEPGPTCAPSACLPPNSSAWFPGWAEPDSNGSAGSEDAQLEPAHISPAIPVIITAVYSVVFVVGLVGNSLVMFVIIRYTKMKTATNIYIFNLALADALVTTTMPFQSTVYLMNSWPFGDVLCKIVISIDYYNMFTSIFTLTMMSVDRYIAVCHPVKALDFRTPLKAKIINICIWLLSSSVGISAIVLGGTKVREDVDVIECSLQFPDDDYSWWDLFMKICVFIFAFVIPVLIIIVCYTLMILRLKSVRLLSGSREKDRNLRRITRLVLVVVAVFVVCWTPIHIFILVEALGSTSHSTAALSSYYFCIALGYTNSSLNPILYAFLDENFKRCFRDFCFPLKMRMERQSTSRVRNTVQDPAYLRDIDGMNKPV

Molecular target: Kappa opioid receptor (KOR) (Homo sapiens, UniProt P41145)
Experiment: DiscoverX cAMP Hunter eXpress KOR GPCR Assay kit, Experiment 3.1 (96-well)
Type: cell-based
Conditions: lowest concentration tested, 0.1 nM, 15 μM Forskolin

In the case of `COC(=O)[C@@H]1C[C@H](OC(C)=O)C(=O)[C@H]2[C@@]1(C)CC[C@H]1C(=O)O[C@H](c3ccoc3)C[C@]21C`, the “inhibition of cAMP production” value is reported as 100%.
